Each compound was assayed against human MDM2 (GST-hMDM2 1-188), interaction with biotinylated-p53 (1-83) (Homo sapiens, UniProt Q00987) (assay: improved HTRF assay (HTRF2 assay), inhibition of HDM2-p53 interaction). Conditions: read-out: HTRF2 IC50; 0.2 nM GST-hMDM2, 0.5 nM biotinylated-p53, 100 mM KF.

Amino acid sequences for entries named in this document (tags omitted). Residues count along the entry.
UniProt Q00987, 1-188 limits assumed: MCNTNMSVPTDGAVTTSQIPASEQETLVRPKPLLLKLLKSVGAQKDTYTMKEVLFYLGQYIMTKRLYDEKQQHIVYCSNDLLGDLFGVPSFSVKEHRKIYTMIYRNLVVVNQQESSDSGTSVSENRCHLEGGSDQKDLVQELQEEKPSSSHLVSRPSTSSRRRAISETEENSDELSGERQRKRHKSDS

Row | Compound | IC50
1 | CC(C)S(=O)(=O)C(C)[C@H](C1CC1)N1C(=O)C(CC(=O)O)O[C@H](c2cccc(Cl)c2)[C@H]1c1ccc(Cl)cc1 (single isomer, unassigned) | 3 nM
2 | CCC(C)S(=O)(=O)C[C@H](CC)N1C(=O)C(CC(=O)O)O[C@H](c2cccc(Cl)c2)[C@H]1c1ccc(Cl)cc1 (single isomer, unassigned) [Example 281] | 4 nM
3 | CCC(C)S(=O)(=O)C[C@H](CC)N1C(=O)C(CC(=O)O)O[C@H](c2cccc(Cl)c2)[C@H]1c1ccc(Cl)cc1 (single isomer, unassigned) [Example 280] | 2 nM
